Measured affinities in a library of Ab-14 heavy chain variants

Source: Engelhart et al. 2022 (doi:10.1038/s41597-022-01779-4), MIT Lincoln Laboratory and A-Alpha Bio; data file from the FLAb repository.

Antigen: PDVDLGDISGINAS, a 14-residue peptide of the SARS-CoV-2 spike HR2 region.

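The starting antibody came from a phage panning campaign against this peptide. Library AAYL49 holds single substitutions and randomly drawn double and triple substitutions in the CDRs. The assay is AlphaSeq: two haploid yeast populations carry antibody and antigen on their surface. The frequency of each diploid, read from paired DNA barcodes, reflects how well the two displayed proteins bind. The ratio of observed to expected reads was calibrated, replicate by replicate, on BCL2-family standards whose Kd was known from biolayer interferometry. Each pool was mated in three replicate cultures.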

Parent scFv Ab-14: VH joined to VL by the linker GGGGSGGGGSGGGGS. Changes lie in the heavy chain CDRs alone.
VH: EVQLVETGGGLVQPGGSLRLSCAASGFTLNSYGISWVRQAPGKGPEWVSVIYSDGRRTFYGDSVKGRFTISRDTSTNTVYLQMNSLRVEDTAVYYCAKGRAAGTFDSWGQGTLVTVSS
VL: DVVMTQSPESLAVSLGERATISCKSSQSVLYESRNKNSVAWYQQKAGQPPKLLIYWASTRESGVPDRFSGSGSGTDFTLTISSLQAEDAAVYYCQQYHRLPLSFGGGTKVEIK

Changes read parent residue, position, new residue, counted from the first residue of the VH shown. Every variant below is changed at V64 of the VH (sequential numbering). Scale: log10 of Kd in nM, estimated from mating counts; low values are strong binders. A pair that was not seen in that replicate is written "ND"; this usually means weak binding, but a binder can also be missed. As a blank, each scFv also met three strains without target: over library AAYL49, 15% of these pairings were detected, typically at 4.06 and seldom below 2.83. For reference, the parent read 0.65 as the reference entry and 4.11 (one replicate of three) as a member of this library.

- V64K+G103E+T104C = 3.11, ND, 2.99
- S35T+V64D+T104A = ND, ND, ND
- T28H+V64Y+K65R = 2.59, 2.26, 2.41
- V64L+K65I+A102H = ND, 3.34, ND
- T58P+V64I+F105V = 3.85, 3.91, ND
- I34G+T58R+V64L = 4.35, 3.50, ND
- I51N+V64F+F105I = ND, 2.85, ND
- G33I+T58Q+V64S = 4.90, ND, ND
- V50R+R56C+V64T = ND, ND, ND
- G26C+F27D+V64P = 4.36, 3.17, 3.72
- V50F+S63H+V64A = 3.61, ND, ND
- D54S+V64F+K65Y = ND, ND, ND
- T28P+V64M+A102N = 2.55, 2.51, 3.00
- V50A+Y60Q+V64A = 5.67, ND, 5.64
- R57G+V64H = ND, 3.17, ND
- V64M = ND, 2.64, ND
- D62A+V64M+A102G = 2.95, ND, 4.75
- V64F+T104C+S107W = ND, ND, ND
- F59K+V64P+S107R = 5.54, 4.58, 3.26
- V64T+A102T+F105S = ND, ND, ND
- S53R+R56F+V64H = ND, ND, 4.44
- V64F = 0.96, 1.19, 1.41
- I34G+S35R+V64C = ND, ND, ND
- Y52H+V64S = ND, ND, 4.26
- S31I+V64H+D106W = ND, ND, ND
- G26I+V64N+D106R = ND, 3.06, ND
- F27D+V64S+K65F = ND, ND, ND
- S31I+V64K+K65W = 4.64, ND, 6.42
- I51N+V64W+A101E = ND, ND, ND
- I34A+V64Q+A102Q = ND, ND, ND
- L29K+V64N = 3.56, ND, ND
- S53N+V64W+T104D = ND, ND, 3.77
- V50E+V64Y+A101V = ND, ND, 6.18

A selection of 4 entries from above:

changes,"replicates, log10 nM"
T28H+V64Y+K65R,"2.59, 2.26, 2.41"
V50R+R56C+V64T,"ND, ND, ND"
D54S+V64F+K65Y,"ND, ND, ND"
V64F,"0.96, 1.19, 1.41"